# From PubChem BioAssay AID892 (National Center for Advancing Translational Sciences (NCATS), 2007)
# Amino acid sequences for entries named in this document (tags omitted).
# UniProt P38398, whole entry, looked up: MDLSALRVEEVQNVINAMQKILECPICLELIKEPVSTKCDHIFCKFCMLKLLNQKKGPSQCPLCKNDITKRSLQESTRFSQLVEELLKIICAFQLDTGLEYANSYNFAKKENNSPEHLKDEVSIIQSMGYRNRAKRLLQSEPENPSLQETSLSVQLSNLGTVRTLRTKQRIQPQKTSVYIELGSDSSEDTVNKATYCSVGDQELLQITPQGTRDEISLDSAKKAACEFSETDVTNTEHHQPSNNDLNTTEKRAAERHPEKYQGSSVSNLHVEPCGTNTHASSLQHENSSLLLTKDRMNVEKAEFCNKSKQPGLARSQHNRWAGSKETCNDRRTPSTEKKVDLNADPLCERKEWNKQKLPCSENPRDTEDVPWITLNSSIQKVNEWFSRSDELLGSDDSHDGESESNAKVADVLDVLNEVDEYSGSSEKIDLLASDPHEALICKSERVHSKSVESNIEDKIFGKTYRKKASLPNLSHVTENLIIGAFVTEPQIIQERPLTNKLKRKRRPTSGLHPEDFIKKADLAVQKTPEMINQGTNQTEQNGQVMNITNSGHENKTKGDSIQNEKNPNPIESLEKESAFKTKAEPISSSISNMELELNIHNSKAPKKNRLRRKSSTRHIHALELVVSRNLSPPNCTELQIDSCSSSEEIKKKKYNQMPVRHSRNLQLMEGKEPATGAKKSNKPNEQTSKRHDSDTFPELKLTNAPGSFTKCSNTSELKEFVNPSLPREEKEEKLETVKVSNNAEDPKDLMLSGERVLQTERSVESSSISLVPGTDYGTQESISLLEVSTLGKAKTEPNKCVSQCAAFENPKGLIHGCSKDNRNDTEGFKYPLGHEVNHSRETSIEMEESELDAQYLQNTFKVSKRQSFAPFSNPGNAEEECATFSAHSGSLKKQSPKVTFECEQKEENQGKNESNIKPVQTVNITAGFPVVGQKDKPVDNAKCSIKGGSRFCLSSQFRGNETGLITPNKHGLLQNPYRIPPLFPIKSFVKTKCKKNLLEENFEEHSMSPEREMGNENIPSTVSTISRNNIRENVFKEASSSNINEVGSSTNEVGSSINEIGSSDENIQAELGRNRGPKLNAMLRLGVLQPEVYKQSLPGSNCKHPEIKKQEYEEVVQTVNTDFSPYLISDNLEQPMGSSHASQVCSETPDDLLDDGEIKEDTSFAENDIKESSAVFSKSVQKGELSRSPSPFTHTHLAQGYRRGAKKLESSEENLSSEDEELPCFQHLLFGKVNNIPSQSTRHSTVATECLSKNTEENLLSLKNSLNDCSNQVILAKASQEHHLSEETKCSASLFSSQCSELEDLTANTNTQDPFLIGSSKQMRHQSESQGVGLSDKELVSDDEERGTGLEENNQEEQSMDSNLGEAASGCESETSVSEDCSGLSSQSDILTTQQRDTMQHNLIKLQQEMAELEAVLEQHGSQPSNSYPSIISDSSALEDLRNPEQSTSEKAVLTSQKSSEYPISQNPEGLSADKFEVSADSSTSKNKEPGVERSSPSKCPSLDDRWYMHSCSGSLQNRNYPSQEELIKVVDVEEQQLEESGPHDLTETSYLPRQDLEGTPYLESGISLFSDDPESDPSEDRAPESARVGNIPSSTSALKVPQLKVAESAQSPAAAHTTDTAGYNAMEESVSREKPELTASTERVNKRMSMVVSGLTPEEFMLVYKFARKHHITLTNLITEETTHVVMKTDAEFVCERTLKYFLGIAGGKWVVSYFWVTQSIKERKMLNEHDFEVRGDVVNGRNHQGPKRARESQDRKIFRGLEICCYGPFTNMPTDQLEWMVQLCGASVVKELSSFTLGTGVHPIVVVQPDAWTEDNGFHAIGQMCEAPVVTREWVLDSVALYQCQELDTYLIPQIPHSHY
# Values joined by “and” are separate entries in the source; they are usually repeats but may differ in a detail not shown here. Equal entries are not always repeated. This is a selection; strong and weak results do not stand in their true shares. Active and inactive are the calls of the source. The call rests on the fitted dose curve; in most records, active means well fitted inhibition curve with a large enough effect; inconclusive means small, poorly fitted or top-dose-only effect; inactive means no such curve, though single readings can be large or run the other way.
# Target: Breast cancer type 1 susceptibility protein (Homo sapiens) (UniProt P38398)
# Test: qHTS Assay for Inhibitors of BRCT-Phosphoprotein Interaction (Red Fluorophore)
# Conditions: BRCT-phosphopeptide binding, red fluorescence polarization
# Protocol: NIH Molecular Libraries Screening Centers Network [MLSCN]
# NIH Chemical Genomics Center [NCGC]
# PI Name: Natarajan, Amarnath; University of Texas
# A complex of BRCT (C-terminal portion of BRCA1, MW ~35 kDa, His-tagged) and fluorescently labeled pBACH1 phosphorylated 10 aa peptide fragment of BACH1, a helicase implicated in DNA repair, is incubated with library members. Inhibitors of BRCT-pBACH1 binding are detected by a decrease in the fluorescence polarization (FP) of the fluorophore. In order to minimize the effect of fluorescence artifacts and to increase the overall robustness of the screen, the compound library members were incubated in separate reactions with rhodamine-labeled probe-protein complexes. Protein and labeled probes were supplied by Dr. Amarnath Natarajan, Department of Pharmacology and Toxicology, University of Texas Medical Branch Galveston, TX.
# Assay Buffer: 16mM Na2HPO4, 4 mM NaH2PO4, 150 mM NaCl, 1 mM EDTA, 1 mM DTT, 0.02% NaN3, and 0.01% Tween 20 at pH 7.3.
# Assay Controls: 100 nM TAMRA labeled decapeptide dispensed into columns 3 and 4 to generate negative control (full inhibition of
# binding, -100 % activity). 100 nM labeled decapeptide/100 nM protein in columns 1, 2, 5 - 48. Titration of unlabeled decapeptide control (from 10 mM, then 1:2 dilution in duplicate) pin-transferred to column 2, rows 1 to 16. Column 1 is neutral.
# Three uL of reagents were dispensed to 1536-well Greiner black solid-bottom plates. Compounds and controls (23 nL) were transferred via Kalypsys PinTool. The plates were incubated for 12 min at room temperature, and then read on ViewLux (Perkin-Elmer) High-throughput CCD imager using BODIPY for the rhodamine-labeled decapeptide probe polarization filter sets. During dispense, reagent bottles were kept submerged into 4 deg C water bath and all liquid lines were covered with aluminum foil to minimize probe and protein degradation. All screening operations were performed on a Kalypsys robotic system (Kalypsys, Inc., San Diego, CA) containing one RX-130 and two RX-90 anthropomorphic robotic arms. The timing and order of assay plates passing through the screening system were adjusted such that each compound library plate was assayed against the fluorescein- and rhodamine-labeled assay systems at immediately adjacent time points.
# [1] = at 76.9 µM (top of the series) unless noted
# On the % scale 0 is the no-effect control and ±100 the full control effect.
smiles,measurement,setting,value
COC(=O)c1cc2c(s1)N=C(c1ccccc1)N(C)P2(=O)N1CCOCC1 (configuration not stated),"activity change, negative = inhibition",[1],inactive: 0.571%
O=P1(Nc2nc3ccc(Cl)cc3s2)COc2ccccc2O1 (configuration not stated),"activity change, negative = inhibition",[1],inactive: -0.0878%
CN1CCC[C@H](OC(=O)C(c2ccccc2)c2ccccc2)C1,"activity change, negative = inhibition",[1],inactive: -0.228% [at 15.4 µM]
C[C@@H](O)COc1ccc([As](=O)(O)O)cc1N,"activity change, negative = inhibition",[1],inactive: -0.0974% [at 15.4 µM]
O=P(Nc1nccs1)(c1ccccc1)c1ccccc1,"activity change, negative = inhibition",[1],inactive: -0.079%
c1nnnn1CCn1cnnn1,"activity change, negative = inhibition",[1],inactive: 0.243%
O=C(OC1CN2CCC1CC2)c1cccc(Cl)c1 (configuration not stated),"activity change, negative = inhibition",[1],inactive: 0.859%
[N-]=[N+]=Nc1ccc([As](=O)(O)O)cc1,"activity change, negative = inhibition",[1],inactive: 0.0391% [at 15.4 µM]
Cc1cc([N+](=O)[O-])cc([N+](=O)[O-])c1O,"activity change, negative = inhibition",[1],inactive: -1.5%
CN(C(=O)Cc1ccccc1)[C@@H]1CC[C@@]2(CCCO2)C[C@H]1N1CCCC1,"activity change, negative = inhibition",[1],inactive: -1.5%
O=C(CO)Nc1ccc([As](=O)(O)O)cc1,"activity change, negative = inhibition",[1],inactive: -0.493% [at 15.4 µM]
CCc1nc2c(n1)c1c(non1O)c1c2no[n+]1[O-],"activity change, negative = inhibition",[1],inactive: 1.73%
Cc1c2non([O-])c-2c(C)[n+](=O)[n+]1[O-],"activity change, negative = inhibition",[1],inactive: 1.76%
NCC[C@@H](N)CSP(=O)(O)O,"activity change, negative = inhibition",[1],inactive: 1.97% [at 15.4 µM]
O=[N+]([O-])c1ccc(C[As](=O)(O)O)cc1,"activity change, negative = inhibition",[1],inactive: 0.24% [at 15.4 µM]
[N-]=[N+]=NCC(O)CN=[N+]=[N-] (configuration not stated),"activity change, negative = inhibition",[1],inactive: -0.461% [at 15.4 µM]
C(Cc1nn[nH]n1)c1nn[nH]n1,"activity change, negative = inhibition",[1],inactive: 0.283% [at 15.4 µM]
CN(C(=O)Cc1ccc(Cl)c(Cl)c1)[C@H]1CCCC[C@@H]1N1CCCC1,"activity change, negative = inhibition",[1],inactive: 0.608% and inactive: 1.16% and inactive: -0.902%
[N-]=[N+]=NCC(N)=O,"activity change, negative = inhibition",[1],inactive: -0.447% [at 15.4 µM]
O=[As]c1ccc(S(=O)(=O)NCCO)cc1 (configuration not stated),"activity change, negative = inhibition",[1],inactive: 0.893% [at 15.4 µM]
O=C(OC1CN2CCC1CC2)C12CC3CC(CC(C3)C1)C2 (configuration not stated),"activity change, negative = inhibition",[1],inactive: -0.532%
NC(=O)Nc1cc([As](=O)(O)O)cc(I)c1O,"activity change, negative = inhibition",[1],inactive: 0.239% [at 15.4 µM]
COP1(=S)c2c(C)nn(CCC#N)c2N=C(c2ccc(F)cc2)N1C (configuration not stated),"activity change, negative = inhibition",[1],inactive: -0.322%
O=C(O)[C@@H](O)c1ccc([As](=O)(O)O)cc1,"activity change, negative = inhibition",[1],inactive: 0.488% [at 15.4 µM]
O=C(COc1ccccc1)OC1CN2CCC1CC2 (configuration not stated),"activity change, negative = inhibition",[1],inactive: 0.492%
CN(N=O)C(=N)N[N+](=O)[O-],"activity change, negative = inhibition",[1],inactive: -0.179%
O=P1(Nc2ncccn2)COc2ccccc2OC1,"activity change, negative = inhibition",[1],inactive: 0.762%
O=P1(Nc2ccc(Br)cn2)COc2ccccc2OC1,"activity change, negative = inhibition",[1],inactive: -1.15%
Cc1nn(-c2ccccc2)c2c1P(=O)(N1CCOCC1)N(C)C(c1ccccc1)=N2 (configuration not stated),"activity change, negative = inhibition",[1],inactive: -0.977%
CN(C(=O)Cc1ccc(Cl)c(Cl)c1)[C@@H]1CCCC[C@H]1N1CCCC1,"activity change, negative = inhibition",[1],inactive: 1.53% [middle of 4 runs]
CN(CCCl)Cc1cc(Cl)c(NC2=NCCN2)c(Cl)c1,"activity change, negative = inhibition",[1],inactive: -3.08%
O=P1(Nc2ccccn2)COc2ccccc2OC1,"activity change, negative = inhibition",[1],inactive: 1.21%
Clc1n[nH]nc1-c1nn[nH][15n]1,"activity change, negative = inhibition",[1],inactive: -1.17%
O=C(CC(=O)c1ccccc1)O[C@H]1CN2CCC1CC2,"activity change, negative = inhibition",[1],inactive: -2.37% [at 15.4 µM]
NS(=O)(=O)Cc1ccc([As](=O)(O)O)cc1,"activity change, negative = inhibition",[1],inactive: -0.933% [at 15.4 µM]
CN(C(=O)Cc1ccc(Cl)c(Cl)c1)[C@@H]1CC[C@@]2(CCCO2)C[C@H]1N1CCCC1,"activity change, negative = inhibition",[1],inactive: 2.35%
NC(=O)Nc1ccc([As](=O)(O)O)cc1,"activity change, negative = inhibition",at 34.4 µM (top of the series),inactive: -0.182%
same,"activity change, negative = inhibition",at 76.9 µM (top of the series),inactive: 1.13%
CCOP1(=S)c2c(C)nn(CCC#N)c2N=C(c2ccc(F)cc2)N1C (configuration not stated),"activity change, negative = inhibition",[1],inactive: -0.97%
CCOP1(=S)c2c(C)nn(CCC#N)c2N=C(c2ccccc2F)N1C (configuration not stated),"activity change, negative = inhibition",[1],inactive: -2.1%
O=P(Nc1nccs1)(c1ccccc1)c1nc2ccccc2s1 (configuration not stated),"activity change, negative = inhibition",[1],inactive: -1.28%
O=[As](O)(O)c1ccc([As](=O)(O)O)cc1,"activity change, negative = inhibition",[1],inactive: -0.382% [at 15.4 µM]
